KM of steady-state acetylation of the peptide (CoA formation by MS; 20 μM AcCoA, 25 °C) data for one substance are collected here from article PMC11946513, “Modulation of the substrate preference of a MYST acetyltransferase by a scaffold protein” (The Journal of Biological Chemistry, 2025).

Amino acid sequences for entries named in this document (tags omitted).
UniProt Q92794, whole entry, looked up: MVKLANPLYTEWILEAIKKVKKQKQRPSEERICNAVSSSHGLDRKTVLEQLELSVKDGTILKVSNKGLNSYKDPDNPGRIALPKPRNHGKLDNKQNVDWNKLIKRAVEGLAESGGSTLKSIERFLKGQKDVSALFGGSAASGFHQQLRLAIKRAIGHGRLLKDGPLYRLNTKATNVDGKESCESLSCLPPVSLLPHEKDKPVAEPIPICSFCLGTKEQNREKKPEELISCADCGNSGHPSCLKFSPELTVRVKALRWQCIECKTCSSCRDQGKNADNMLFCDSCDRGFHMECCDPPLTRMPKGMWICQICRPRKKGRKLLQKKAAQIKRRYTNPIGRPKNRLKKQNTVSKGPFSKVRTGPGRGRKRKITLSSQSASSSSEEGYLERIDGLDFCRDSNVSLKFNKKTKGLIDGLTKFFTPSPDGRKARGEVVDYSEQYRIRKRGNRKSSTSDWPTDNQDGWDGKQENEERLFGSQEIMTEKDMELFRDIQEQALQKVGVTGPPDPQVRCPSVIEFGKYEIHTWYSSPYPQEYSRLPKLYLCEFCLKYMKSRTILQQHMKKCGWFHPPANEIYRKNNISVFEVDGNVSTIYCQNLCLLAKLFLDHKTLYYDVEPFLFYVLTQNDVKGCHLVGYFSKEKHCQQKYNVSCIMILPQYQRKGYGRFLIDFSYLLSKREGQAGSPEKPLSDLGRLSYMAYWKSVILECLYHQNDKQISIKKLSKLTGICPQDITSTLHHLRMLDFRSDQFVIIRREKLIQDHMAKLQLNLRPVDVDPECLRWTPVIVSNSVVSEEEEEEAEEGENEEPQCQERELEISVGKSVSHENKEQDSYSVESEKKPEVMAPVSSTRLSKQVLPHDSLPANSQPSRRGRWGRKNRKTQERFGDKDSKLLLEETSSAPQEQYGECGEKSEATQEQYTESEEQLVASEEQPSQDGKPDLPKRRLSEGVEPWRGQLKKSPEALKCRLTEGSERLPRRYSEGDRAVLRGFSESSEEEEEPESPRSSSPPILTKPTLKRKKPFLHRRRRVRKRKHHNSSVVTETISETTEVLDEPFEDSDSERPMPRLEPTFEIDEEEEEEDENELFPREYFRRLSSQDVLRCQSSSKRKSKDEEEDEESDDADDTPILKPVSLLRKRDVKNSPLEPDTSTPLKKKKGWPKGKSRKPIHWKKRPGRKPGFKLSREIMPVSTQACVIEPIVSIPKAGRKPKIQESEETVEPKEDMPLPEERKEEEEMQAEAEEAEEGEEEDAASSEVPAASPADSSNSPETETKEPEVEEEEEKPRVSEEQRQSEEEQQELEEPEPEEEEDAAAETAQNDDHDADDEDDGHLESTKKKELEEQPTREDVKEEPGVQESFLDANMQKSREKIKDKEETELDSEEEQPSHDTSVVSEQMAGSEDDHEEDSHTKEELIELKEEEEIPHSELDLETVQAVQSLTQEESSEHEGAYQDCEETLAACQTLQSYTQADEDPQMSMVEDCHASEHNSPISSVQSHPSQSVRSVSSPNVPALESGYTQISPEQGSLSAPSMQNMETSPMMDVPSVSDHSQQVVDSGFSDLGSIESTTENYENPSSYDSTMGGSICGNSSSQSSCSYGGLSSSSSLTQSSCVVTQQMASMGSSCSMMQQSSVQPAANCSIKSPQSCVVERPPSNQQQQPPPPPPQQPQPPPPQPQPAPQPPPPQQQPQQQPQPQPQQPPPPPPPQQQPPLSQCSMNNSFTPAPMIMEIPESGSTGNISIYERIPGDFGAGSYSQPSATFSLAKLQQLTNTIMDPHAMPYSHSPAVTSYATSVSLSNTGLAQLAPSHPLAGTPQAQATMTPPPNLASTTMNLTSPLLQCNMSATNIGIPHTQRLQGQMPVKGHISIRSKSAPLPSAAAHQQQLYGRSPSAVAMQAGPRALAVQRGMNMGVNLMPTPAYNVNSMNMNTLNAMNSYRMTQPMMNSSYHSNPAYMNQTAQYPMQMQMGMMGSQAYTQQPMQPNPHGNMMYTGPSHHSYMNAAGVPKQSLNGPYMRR

The target in test [1] is KAT6A^FL 4-protein complex (KAT6A^FL 4-plex) (UniProt Q92794).
Test [2] addresses KAT6A^FL-BRPF1 2-protein complex (KAT6A^FL 2-plex) (human) (UniProt Q92794).

On to H3 (1-21) (peptide), for which the KM of steady-state acetylation of the peptide (CoA formation by MS; 20 μM AcCoA, 25 °C) in test [1] turned out to be 13 µM; in test [2], 11 µM.
